The chains behind the UniProt entries cited, without tags or fusion partners.
UniProt P50750, whole entry: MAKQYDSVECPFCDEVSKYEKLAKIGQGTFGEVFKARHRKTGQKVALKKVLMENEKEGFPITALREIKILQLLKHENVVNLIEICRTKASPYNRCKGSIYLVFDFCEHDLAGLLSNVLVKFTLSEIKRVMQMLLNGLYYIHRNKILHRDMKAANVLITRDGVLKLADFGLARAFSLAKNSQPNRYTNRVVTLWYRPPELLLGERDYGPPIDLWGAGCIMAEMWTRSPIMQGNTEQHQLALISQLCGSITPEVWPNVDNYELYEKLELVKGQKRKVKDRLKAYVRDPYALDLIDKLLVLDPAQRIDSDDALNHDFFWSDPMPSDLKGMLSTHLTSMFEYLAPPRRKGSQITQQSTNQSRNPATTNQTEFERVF

In ChEMBL document CHEMBL5247634, “Design, synthesis and anticancer evaluation of selective 2,4-disubstituted pyrimidine CDK9 inhibitors” (Eur J Med Chem, 2022):

Molecular target: Cyclin-dependent kinase 9 (Homo sapiens, UniProt P50750)

COc1cc(F)ccc1-c1ccnc(NC(=O)[C@H]2CCC[C@@H](NC(C)=O)C2)c1
IC50: 5 nM
